Experimental data published in patent US20180117053A1, “The Method of Use for Inhibitors of Epidermal Growth Factor Receptor Variants II, III and VI” (Metastat, Inc., priority 2015, published 2018).

Target: EGFR-viii (Homo sapiens, UniProt P00533, DELINS30-297G)
Assay: PhosphoY1173-EGFR-viii in-cell ELISA in U87MG tumor cells engineered to express EGFR-viii
Details: U87MG tumor cells expressing EGFR-viii, in words

activity against EGFR-viii: weak activity
SMILES: C=CC(=O)Nc1cccc(Oc2nc(Nc3ccc(N4CCN(C)CC4)cc3OC)ncc2Cl)c1 [WZ4002]
